Molecular target: α1β3γ2 (Rattus norvegicus, UniProt P18508+P62813)
Test: biochemical

Chains of the proteins cited; added tags and fusions are not shown. Residues count along the entry.
UniProt P18508, 39-466: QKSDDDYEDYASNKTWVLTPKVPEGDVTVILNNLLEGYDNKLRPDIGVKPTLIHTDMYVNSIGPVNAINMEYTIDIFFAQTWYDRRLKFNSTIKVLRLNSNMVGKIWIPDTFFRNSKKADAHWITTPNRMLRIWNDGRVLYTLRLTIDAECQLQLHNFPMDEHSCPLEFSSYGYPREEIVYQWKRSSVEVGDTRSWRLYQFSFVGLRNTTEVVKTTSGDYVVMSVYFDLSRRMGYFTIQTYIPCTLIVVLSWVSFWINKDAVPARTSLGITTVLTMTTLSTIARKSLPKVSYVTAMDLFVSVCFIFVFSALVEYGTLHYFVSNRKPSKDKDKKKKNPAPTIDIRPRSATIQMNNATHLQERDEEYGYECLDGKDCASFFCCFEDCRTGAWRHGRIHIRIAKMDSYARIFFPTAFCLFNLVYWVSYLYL
UniProt P62813, 28-455: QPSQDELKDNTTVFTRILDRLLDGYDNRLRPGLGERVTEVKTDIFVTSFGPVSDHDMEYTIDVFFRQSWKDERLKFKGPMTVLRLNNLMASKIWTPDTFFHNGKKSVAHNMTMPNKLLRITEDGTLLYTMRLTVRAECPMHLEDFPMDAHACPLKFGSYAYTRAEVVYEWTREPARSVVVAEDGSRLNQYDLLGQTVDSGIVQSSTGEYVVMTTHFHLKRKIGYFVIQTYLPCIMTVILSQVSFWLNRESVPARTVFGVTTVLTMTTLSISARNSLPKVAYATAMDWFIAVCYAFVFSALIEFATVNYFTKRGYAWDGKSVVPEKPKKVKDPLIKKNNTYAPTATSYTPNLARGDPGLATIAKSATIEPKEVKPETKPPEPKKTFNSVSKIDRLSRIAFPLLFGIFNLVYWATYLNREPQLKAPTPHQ

Q: For `CCOC(=O)c1ncn2c1CN(C)C(=O)c1cc(N=[N+]=[N-])ccc1-2` [[^3H]Ro 15-4513], which Kd is on record?
A: The Kd was 2.9 ± 0.3 nM.

Reference: article PMC3137752 (Alcohol (Fayetteville, N.Y.), 2010)
